Env fusion inh: inhibitors of HIV-1 Env-driven cell-cell fusion, primary screen, HeLa-JRFL effector, CEM21 target cells, luciferase | inhibition, % at 12.3 µM | 360,000 compounds, 1.1% hits | AID 651610, 2012;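 active means mean replicate inhibition score of at least 50 and every replicate individually at or above 50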
Yeast UUG start: modulators of yeast start codon fidelity, primary screen, whole organism, S. cerevisiae, single point, plate reader | AID 602363, 2012 | actives 0.13% (n = 350,000) | activity score, % at 18.7 µM | S. cerevisiae UUG-firefly luciferase reporter, luminescence/redox ratio;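 active means replicate mean at a twofold rise or more, about +100% in these data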;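 further: firefly luciferase made from a UUG start codon reports start codon fidelity; reporter light over untreated wells divided by growth signal over untreated wells; some hits fall short of that in this replicate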
miR122 inh: miR-122 Renilla sensor signal increase in Huh7, primary screen, miR-122 inhibitor project, cell-based, single point, plate reader | Huh7 miR-122 Renilla luciferase sensor, 48 h; neutral wells = 0, positive control = 100 | activation (reporter increase), % at 12.5 µM | 340,000 compounds, 0.3% hits | AID 602342, 2012;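 active means mean replicate activation score at least 90 and every replicate individually at or above 90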;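 further: higher luciferase means less miR-122 activity so hits act as miR-122 inhibitors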
PGC1a acetyl inh: inhibitors of PGC1a acetylation signal, primary screen, cell-based, U2OS, AlphaScreen, inhibitor mode | 350,000 compounds, 0.17% hits | AlphaScreen anti-acetyl-lysine; with virally co-expressed GCN5 acetyltransferase | inhibition, % at 15.6 µM;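 active means every replicate shows inhibition of at least 40%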
FN deposition inh: inhibitors of fibronectin matrix deposition, primary screen, AH1F cells, Alexa488-fibronectin fluorescence, plate reader. AH1F fibroblasts, overnight. inhibition, % at 12.6 µM. 350,000 compounds, 0.086% hits. AID 743247, 2014;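 active means mean inhibition across replicates of 30% or more, regardless of how many single replicates reach that level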
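Material: AH1F fibroblasts assembling fluorescent fibronectin matrix; amount: 10000 AH1F cells/well; medium: DMEM, 2% serum; reagent: Alexa488-fibronectin, 24 nM final in well; dosing: single compound dose, delivered by pin transfer; incubation: 1 h adhesion, overnight exposure; detection: fluorescence after three HBSS washes, excitation 485 nm, emission 525 nm; measure: fibronectin deposition inhibition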
Cneo AK release: Cryptococcus neoformans cell lysis inducers, primary screen, AK release luminescence, single concentration. C. neoformans lysis, adenylate kinase release luminescence, 4 h; normalised: neutral wells 0, clomiphene wells 100. lysis activity, % at 15 µM. 360,000 compounds, 0.2% hits. AID 651654, 2012;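 active means mean lysis activity across replicates of at least 80%, whatever share of replicates individually reach that level; inactive means mean lysis activity below 80%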
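Signal: Adenylate kinase release luminescence | Assay system: Log-phase Cryptococcus neoformans yeast cells | Input: Cells at 5 × 10^6 per mL | Buffer or medium: Fresh YPD growth medium | Compound: Single dose | Schedule: Static 4 h at 37 °C with compound, 1 h detection | Controls: Clomiphene | Read-out: Luminescence rise reflecting yeast cell lysis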
Numbers stand for hits; 0 = inactive; - = no result. Shown are actives, neighbours in structure and some others; about 1.5% of the full set was active somewhere.

SMILES	Env fusion inh	Yeast UUG start	miR122 inh	PGC1a acetyl inh	FN deposition inh	Cneo AK release
COc1ccc(OC)c(NC2=NCCCS2)c1	0	-	-	0	0	-
CC(=O)OC1C(=O)OCC23CCC4(C)OC4C2OC2CC(OC(=O)C=CC=CC(=O)OCCC1C)C3(C)C21CO1 (stereo not drawn)	77.3	-	-	-	0	-
CC(O)C1C=CC=CC(=O)OC2CC3OC4C5OC5(C)CCC4(COC(=O)C4OC4(C)C(O)CO1)C2(C)C31CO1 (stereo not drawn)	0	-	-	-	0	-
ON1C2CCCCC2N(O)C1c1ccccc1 (stereo not drawn)	-	0	0	0	-	0
CCOc1ccc(-c2cc(C)[n+](CCc3ccc(OC)c(OC)c3)c(-c3ccc(OCC)cc3)c2)cc1	0	0	0	0	0	0
O=[N+]([O-])c1ccccc1-c1cc(-c2ccccc2)cc(-c2ccccc2)[n+]1Cc1ccccc1Cl	61.1	-	-	-	0	-
O=C(C(=O)N1CCOCC1)c1cn(Cc2ccc(F)cc2)c2ccccc12	0	0	-	0	0	0
OC1C2CN3CN(C2)CC1(c1ccccc1)C3 (stereo not drawn)	0	0	0	0	0	0
COc1ccc(-n2c(O)c(C(C)=NCCCn3ccnc3)c(=O)[nH]c2=O)cc1	68.7	0	0	0	0	0
Clc1ccc(C[n+]2c(-c3ccccc3)cc(-c3ccccc3)cc2-c2ccccc2)cc1	107.2	0	0	0	0	0
CC(=O)OC[C@]12CCC(C)=C[C@H]1O[C@@H]1[C@H](O)[C@@H](OC(C)=O)[C@@]2(C)[C@]12CO2	-	0	0	85.5	-	0
O=C1NC(=O)[C@]2(Cc3ccccc3N3CCN(c4ccccc4)CC32)C(=O)N1c1ccccc1 (stereo partly drawn)	0	0	0	0	31.3	0
CN1C(=O)NC(=O)[C@]2(Cc3ccccc3N3CCN(c4ccccc4)CC32)C1=O (stereo partly drawn)	0	0	0	0	0	0
CC1CN(c2ccc([N+](=O)[O-])cc2Cl)CCN1 (stereo not drawn)	0	0	0	0	0	0
O=S(=O)(c1cccc2ccccc12)N1Cc2ccccc2-n2nncc2C1	0	-	0	0	0	-
C[C@@H]1O[C@@H](O[C@@H]2C=C3CC[C@@H]4C(CC[C@]5(C)[C@@H](c6ccc(=O)oc6)CC[C@]45O)[C@@]3(C)CC2)[C@H](O)[C@H](O)[C@H]1O (stereo partly drawn)	93.1	0	0	67.0	0	0
C[C@@H]1O[C@@H](O[C@@H]2C=C3CCC4C(CC[C@]5(C)[C@@H](c6ccc(=O)oc6)CC[C@]45O)[C@@]3(C)CC2)[C@H](O)[C@H](O)[C@H]1O (stereo partly drawn)	65.0	0	0	60.1	0	0
CC(=O)C1CCC2(O)C3CCC4=CC(=O)CCC4(C)C3CCC12C (stereo not drawn)	0	0	0	-	0	0
O=C([O-])c1ccc(-[n+]2c(-c3ccccc3)cc(-c3ccccc3)cc2-c2ccccc2)cc1	0	0	0	0	0	0
O=C1c2ccccc2-n2nnc(-c3ccccc3)c2C2c3ccccc3CCN12 (stereo not drawn)	0	0	0	0	0	0
c1ccc2c(c1)-c1cccc3cccc-2c13	-	0	0	0	-	0
c1ccc2c(c1)[IH]c1ccccc1-2	0	151.3	0	0	0	0
CC(=O)OC1C(O)C(C)OC(OC2C(OC(=O)C3CCC4C(C3)OC3(CC(OC(=O)/C=C/c5ccccc5)C(C)CO3)C43CO3)OC(C)C(O)C2OC(C)=O)C1O (stereo not drawn)	72.2	-	0	77.7	0	-
O=C(Nc1ccc2ccccc2c1)c1nn(C23CC4CC(CC(C4)C2)C3)cc1Br	0	0	0	0	0	0
CC[n+]1c(/C=C/N(C)c2ccccc2)sc2ccc(Cl)cc21	79.0	0	-	0	0	0
